A short description of this data set: Efflux ratio of apparent permeability across basolateral to apical side over apical to basolateral side in MDCK2-MDR1 cells at 75 uM by UV-visible spectroscopic method. Type of data set: ADME, cell-based, Canis lupus familiaris. The following applies: dog, mdck-mdr1, 75 µM.

For `CN1C(=O)CN=C(c2ccccc2)c2cc(Cl)ccc21` [DIAZEPAM], the Ratio stood at 0.98.

Values taken from ChEMBL document CHEMBL4425129, “Exploring Basic Tail Modifications of Coumarin-Based Dual Acetylcholinesterase-Monoamine Oxidase B Inhibitors: Identification of Water-Soluble, Brain-Permeant Neuroprotective Multitarget Agents” (J Med Chem, 2016).
